Data on 1 substance can be found in patent US20240067944A1 (published 2024).

The data set deals with human plasma-derived FX (Haematologic Technologies Inc, USA).

As for “human plasma-derived FIXa (Haematologic Technologies Inc, USA)”, the KM (nM) of FX activation by free FIXa (10 nM) on phospholipid vesicles is 282 nM and the kcat/KM (1/(min * nM)) of FX activation by free FIXa (10 nM) is 0.00012 min⁻¹ nM⁻¹.
